Measurements published in patent US12350272B2, “Pyridopyrimidinone derivatives for use as AXL inhibitors” (OSCOTEC INC., priority 2018, dated 2025).

By UniProt entry, the sequences of proteins in these tests, tags left out. Residues count along the entry.
UniProt O60674, whole entry: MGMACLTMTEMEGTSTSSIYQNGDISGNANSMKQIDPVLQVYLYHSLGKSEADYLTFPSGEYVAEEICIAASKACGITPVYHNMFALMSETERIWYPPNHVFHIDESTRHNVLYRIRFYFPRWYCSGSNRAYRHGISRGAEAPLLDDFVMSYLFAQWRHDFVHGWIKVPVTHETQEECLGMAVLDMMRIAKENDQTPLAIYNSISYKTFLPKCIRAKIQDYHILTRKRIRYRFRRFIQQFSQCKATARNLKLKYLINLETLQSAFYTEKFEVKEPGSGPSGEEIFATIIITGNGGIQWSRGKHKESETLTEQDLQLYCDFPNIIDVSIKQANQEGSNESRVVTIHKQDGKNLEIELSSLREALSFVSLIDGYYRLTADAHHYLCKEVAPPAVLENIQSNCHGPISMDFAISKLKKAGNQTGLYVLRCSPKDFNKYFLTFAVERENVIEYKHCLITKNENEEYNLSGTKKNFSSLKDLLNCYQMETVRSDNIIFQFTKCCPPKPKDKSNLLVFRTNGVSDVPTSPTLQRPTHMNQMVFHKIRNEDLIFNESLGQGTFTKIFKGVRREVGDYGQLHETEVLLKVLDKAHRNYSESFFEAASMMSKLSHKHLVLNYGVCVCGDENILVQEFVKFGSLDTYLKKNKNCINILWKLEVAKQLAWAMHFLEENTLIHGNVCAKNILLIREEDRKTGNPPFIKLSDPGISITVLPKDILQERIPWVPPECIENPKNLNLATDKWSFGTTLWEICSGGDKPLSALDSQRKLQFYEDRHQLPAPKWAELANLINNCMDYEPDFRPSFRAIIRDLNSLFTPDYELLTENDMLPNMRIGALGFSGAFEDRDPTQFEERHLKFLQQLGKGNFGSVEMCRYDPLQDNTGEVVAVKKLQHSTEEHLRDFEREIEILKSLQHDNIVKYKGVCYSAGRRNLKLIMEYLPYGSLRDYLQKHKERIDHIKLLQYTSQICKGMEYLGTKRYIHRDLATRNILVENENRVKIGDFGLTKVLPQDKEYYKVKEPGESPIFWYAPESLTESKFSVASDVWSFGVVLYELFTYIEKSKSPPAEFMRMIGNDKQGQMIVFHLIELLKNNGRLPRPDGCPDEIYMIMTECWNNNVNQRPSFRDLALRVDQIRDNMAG
UniProt P30530, 26-894 limits assumed: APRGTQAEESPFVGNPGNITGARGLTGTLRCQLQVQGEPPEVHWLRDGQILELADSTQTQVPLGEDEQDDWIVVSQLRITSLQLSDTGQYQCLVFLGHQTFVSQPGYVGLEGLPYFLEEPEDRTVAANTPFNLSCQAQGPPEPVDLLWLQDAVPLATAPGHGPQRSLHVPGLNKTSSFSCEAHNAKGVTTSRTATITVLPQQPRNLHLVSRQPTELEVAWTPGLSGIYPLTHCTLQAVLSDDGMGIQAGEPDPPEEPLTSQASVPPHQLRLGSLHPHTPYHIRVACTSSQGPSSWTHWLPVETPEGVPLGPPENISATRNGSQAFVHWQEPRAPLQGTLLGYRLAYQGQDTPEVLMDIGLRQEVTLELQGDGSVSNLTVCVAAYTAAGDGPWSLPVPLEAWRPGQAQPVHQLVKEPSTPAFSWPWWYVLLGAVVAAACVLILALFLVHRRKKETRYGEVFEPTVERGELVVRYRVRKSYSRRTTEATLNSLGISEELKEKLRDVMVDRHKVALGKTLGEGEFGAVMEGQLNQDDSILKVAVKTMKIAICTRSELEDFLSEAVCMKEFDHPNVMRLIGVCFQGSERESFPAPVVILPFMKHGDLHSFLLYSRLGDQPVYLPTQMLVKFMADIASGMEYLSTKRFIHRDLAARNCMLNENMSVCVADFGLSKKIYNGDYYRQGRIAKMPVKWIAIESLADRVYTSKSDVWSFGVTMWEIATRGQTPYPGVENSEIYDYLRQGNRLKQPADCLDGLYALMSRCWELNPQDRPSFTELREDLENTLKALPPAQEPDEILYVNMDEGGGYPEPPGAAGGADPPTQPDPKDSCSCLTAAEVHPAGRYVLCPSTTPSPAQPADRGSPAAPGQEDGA

Key:
[1] = Drug exposure in rat after oral administration; format: in vivo; settings: oral administration of 10 mg/kg, tested form: HCl
[2] = biological target: JAK2 (Homo sapiens (Human), UniProt O60674); experiment: Biochemical inhibition of JAK2; settings: read-out: JAK2; Table 2, range of IC50 value; tested form: HCl
[3] = biological target: Truncated human Axl (Homo sapiens, UniProt P30530); experiment: Kinase inhibition assay (inhibition of enzymatic Axl kinase activity); format: biochemical; settings: read-out: Axl; Table 2, range of IC50 value; tested form: HCl
[4] = test system: Hs578T cells; experiment: Cell viability assay (ATPLite), Hs578T; settings: read-out: Hs578T (GI50); 72 hour incubation; tested form: HCl
[5] = test system: MDA-MB-231 cells; experiment: Cell viability assay (ATPLite), MDA-MB-231; settings: read-out: MDA-MB-231 (GI50); 72 hour incubation; tested form: HCl

Compound	drug exposure [1]	IC50 [2]	IC50 [3]	GI50 [4]	GI50 [5]
O=c1[nH]ccc2nc(N[C@H]3CCNC3)nc(Nc3ccc(N4CCOCC4)cc3)c12	no drug exposure	1 to 10 nM	11 to 100 nM		
NC1CCN(c2nc(Nc3ccc(Oc4ccccc4)cc3)c3c(=O)[nH]cc(Br)c3n2)CC1		101 to 1000 nM	11 to 100 nM	1100 to 3000 nM	1100 to 3000 nM
O=c1[nH]ccc2nc(N[C@H]3CCNC3)nc(Nc3ccc(C(F)(F)F)cc3)c12	no drug exposure	11 to 100 nM	11 to 100 nM		
